Source: US20240132593A1 (published 2024)

Sequences of proteins named here, by UniProt entry; tags and fusion partners are left off. Residues count along the entry.
UniProt P55899, 24-297, chain 1 of 2: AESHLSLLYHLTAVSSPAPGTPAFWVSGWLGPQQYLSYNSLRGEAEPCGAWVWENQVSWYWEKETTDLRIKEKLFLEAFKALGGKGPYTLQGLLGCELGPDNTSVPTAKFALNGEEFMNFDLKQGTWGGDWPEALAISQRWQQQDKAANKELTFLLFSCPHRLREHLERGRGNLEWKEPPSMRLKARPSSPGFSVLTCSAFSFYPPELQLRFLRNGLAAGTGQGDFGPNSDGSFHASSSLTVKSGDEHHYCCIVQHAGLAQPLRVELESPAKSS

Legend:
[1] = target: FcRn receptor (biotinylated, AlphaLisa binding kit Perkin Elmer #AL3095C) (UniProt P55899, in part; P61769, in part, biotinylated (sites not given)); assay: AlphaLISA FcRn binding assay
[2] = target: T1, immunoglobulin gamma Fc receptor 1 (FcγR1) (biotinylated, AlphaLisa binding kit Perkin Elmer #AL3081C) (UniProt P12314 16-288, biotinylated (sites not given)); assay: AlphaLISA FcγR1 binding assay
T1 chain: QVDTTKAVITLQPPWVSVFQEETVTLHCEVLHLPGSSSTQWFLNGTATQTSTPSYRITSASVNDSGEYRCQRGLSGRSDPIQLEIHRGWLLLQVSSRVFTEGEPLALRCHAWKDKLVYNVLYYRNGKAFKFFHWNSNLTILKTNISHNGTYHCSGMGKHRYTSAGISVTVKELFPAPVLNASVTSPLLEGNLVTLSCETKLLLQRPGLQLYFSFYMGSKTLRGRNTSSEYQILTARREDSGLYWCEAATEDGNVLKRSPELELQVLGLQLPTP

EC50 [1]: 0.284 nM and 0.0426 µg/mL
B1: Ab No. 289.4(LS) (antibody)
chain 1: MGWSCIILFLVATATGVHSQLQLQESGPGLVKPSETLSLTCIVSGGSISSSGYYWGWIRQPPGKGLEWIGSIFYSGNTHYNPSLKSRVTIPVDTSKNQFSLKLSSVTAADSAVYYCARRDILTGPFDYWGQGTLVTVSSAASTKGPSVFPLAPCSRSTSESTAALGCLVKDYFPEPVTVSWNSGALTSGVHTFPAVLQSSGLYSLSSVVTVPSSSLGTKTYTCNVDHKPSNTKVDKRVESKYGPPCPSCPAPEFLGGPSVFLFPPKPKDTLMISRTPEVTCVVVDVSQEDPEVQFNWYVDGVEVHNAKTKPREEQFNSTYRVVSVLTVLHQDWLNGKEYKCKVSNKGLPSSIEKTISKAKGQPREPQVYTLPPSQEEMTKNQVSLTCLVKGFYPSDIAVEWESNGQPENNYKTTPPVLDSDGSFFLYSRLTVDKSRWQEGNVFSCSVLHEALHSHYTQKSLSLSLGK
chain 2: MGWSCIILFLVATATGVHSDIQMTQSPSSLSASVGDRVTITCQASQDITNYLTWYQQKPGNAPKLLIYDASNLETGVPSRFSGSGSGTDFTFTINSLQPEDVATYFCQQYDNLPTFGGGTKVEIKRTVAAPSVFIFPPSDEQLKSGTASVVCLLNNFYPREAKVQWKVDNALQSGNSQESVTEQDSKDSTYSLSSTLTLSKADYEKHKVYACEVTHQGLSSPVTKSFNRGEC

EC50 [2]: 9 nM and 1.39 µg/mL
B2: Ab No. 289.4 (LS) (antibody)
chain 1: B1 chain 1
chain 2: B1 chain 2

“And” between values parts separate entries of the source, which are not always exact repeats. Equal entries are not always repeated. One block for each binder: values may come before it.
